US11920136B2, “Transglutaminase-mediated conjugation” (Tallac Therapeutics, Inc., priority 2020, dated 2024)

B1: CpG 12070:anti-BDCA2 conjugate: "pDC targeting antibody, anti-BDCA2 (SEQ ID NOs: 111 and 112 for VH and VL sequences, respectively), was similarly conjugated with CpG 12070 (SEQ ID NO: 3)" (conjugate)
VH: DVQLVESGGGLVKPGGSLRLSCAASGFTFSTYTMSWVRQAPGKGLEWVATISPGDSFGYYYPDSVQGRFTISRDNAKNSLYLQMNSLRAEDTAVYYCTRDIYYNYGAWFAYWGQGTLVTVSS
VL: DIQLTQSPSSLSASVGDRVTITCKASQSVDYDGDSYMNWYQQKPGKAPKLLIYAASTLESGVPSRFSGSGSGTDFTLTISSLQPEDFATYYCAEDRTFGQGTKVEIK
DNA: ucgtcgtgtcgtt
modifications: transglutaminase conjugation; (1)..(13) Linkages as shown in Table 2 of the specification; (1)..(13) Modified as shown in Table 2 of the specification
B2: TNT138a: "anti-CD22 antibody having RH2 VH domain and RL1 N92S VL domain (SEQ ID Nos:65 and 87" conjugated to compound 7.7b CpG (conjugate)
VH: QVQLLESGGGVVQPGGSLRLSCAASGFAFSIYDMNWVRQAPGKGLEWVSAISSGGGTTYYADSVKGRFTISRDNAKNSLYLQMNSLRAEDTAVYYCARHSGYGTHWGVLFAYWGRGTLVTVSS
VL: DIQMTQSPSSLSASVGDRVTITCRASQDIHGYLNWYQQKPGKAPKLLIYYTSILHSGVPSRFSGSGSGTDFTLTISSLQPEDFATYFCQQGSTLPWTFGQGTKLEIK
modifications: conjugated to CpG 7.7b
B3: TNT71 DAR1: humanized anti-CD22 antibody TNT71 "conjugated with CpG (SEQ ID NO: 3) with a DAR1 configuration" (conjugate)
heavy: EVQLVESGGGLVQPGGSLRLSCAASGFTFSSYEMNWVRQAPGKGLEWVSYISSSGSTIYYADSVKGRFTISRDNAKNSLYLQMNSLRAEDTAVYYCARHSGYGTHWGVLFAYWGRGTLVTVSSASTKGPSVFPLAPSSKSTSGGTAALGCLVKDYFPEPVTVSWNSGALTSGVHTFPAVLQSSGLYSLSSVVTVPSSSLGTQTYICNVNHKPSNTKVDKKVEPKSCDKTHTCPPCPAPEAAGAPSVFLFPPKPKDTLMISRTPEVTCVVVDVSHEDPEVKFNWYVDGVEVHNAKTKPREEQYNSTYRVVSVLTVLHQDWLNGKEYKCKVSNKALPAPIEKTISKAKGQPREPQVYTLPPSREEMTKNQVSLTCLVKGFYPSDIAVEWESNGQPENNYKTTPPVLDSDGSFFLYSKLTVDKSRWQQGNVFSCSVMHEALHNHYTQKSLSLSPGRPQGFGPP
light: DIQMTQSPSSLSASVGDRVTITCRASQDIHGYLNWYQQKPGKAPKLLIYYTSILHSGVPSRFSGSGSGTDFTLTISSLQPEDFATYFCQQGNTLPWTFGQGTKLEIKRTVAAPSVFIFPPSDEQLKSGTASVVCLLNNFYPREAKVQWKVDNALQSGNSQESVTEQDSKDSTYSLSSTLTLSKADYEKHKVYACEVTHQGLSSPVTKSFNRGEC
B4: TNT72 DAR1: humanized anti-CD22 antibody TNT72 "conjugated with CpG (SEQ ID NO: 3) with a DAR1 configuration" (conjugate)
heavy: QVQLQESGPGLVKPSDTLSLTCTVSGFAFSIYDMSWIRQPPGKGLEWIAYISSGGGTTYYNPSLKSRVTISVDTSKNQFSLKLSSVTAADTAVYYCARHSGYGTHWGVLFAYWGRGTLVTVSSASTKGPSVFPLAPSSKSTSGGTAALGCLVKDYFPEPVTVSWNSGALTSGVHTFPAVLQSSGLYSLSSVVTVPSSSLGTQTYICNVNHKPSNTKVDKKVEPKSCDKTHTCPPCPAPEAAGAPSVFLFPPKPKDTLMISRTPEVTCVVVDVSHEDPEVKFNWYVDGVEVHNAKTKPREEQYNSTYRVVSVLTVLHQDWLNGKEYKCKVSNKALPAPIEKTISKAKGQPREPQVYTLPPSREEMTKNQVSLTCLVKGFYPSDIAVEWESNGQPENNYKTTPPVLDSDGSFFLYSKLTVDKSRWQQGNVFSCSVMHEALHNHYTQKSLSLSPGRPQGFGPP
light: DIQMTQSPSSLSASVGDRVTITCRASQDIHGYLNWYQQKPGKAPKLLIYYTSILHSGVPSRFSGSGSGTDFTLTISSLQPEDFATYFCQQGNTLPWTFGQGTKLEIKRTVAAPSVFIFPPSDEQLKSGTASVVCLLNNFYPREAKVQWKVDNALQSGNSQESVTEQDSKDSTYSLSSTLTLSKADYEKHKVYACEVTHQGLSSPVTKSFNRGEC
B5: TNT74 DAR1: humanized anti-CD22 antibody TNT74 "conjugated with CpG (SEQ ID NO: 3) with a DAR1 configuration" (conjugate)
heavy: QVQLLESGGGVVQPGGSLRLSCAASGFAFSIYDMNWVRQAPGKGLEWVSAISSGGGTTYYADSVKGRFTISRDNAKNSLYLQMNSLRAEDTAVYYCARHSGYGTHWGVLFAYWGRGTLVTVSSASTKGPSVFPLAPSSKSTSGGTAALGCLVKDYFPEPVTVSWNSGALTSGVHTFPAVLQSSGLYSLSSVVTVPSSSLGTQTYICNVNHKPSNTKVDKKVEPKSCDKTHTCPPCPAPEAAGAPSVFLFPPKPKDTLMISRTPEVTCVVVDVSHEDPEVKFNWYVDGVEVHNAKTKPREEQYNSTYRVVSVLTVLHQDWLNGKEYKCKVSNKALPAPIEKTISKAKGQPREPQVYTLPPSREEMTKNQVSLTCLVKGFYPSDIAVEWESNGQPENNYKTTPPVLDSDGSFFLYSKLTVDKSRWQQGNVFSCSVMHEALHNHYTQKSLSLSPGRPQGFGPP
light: DIQMTQSPSSVSASVGDRVTITCRASQDIHGYLAWYQQKPGKAPKLLIYYTSSLQSGVPSRFSGSGSGTDFTLTISSLQPEDFATYYCQQGNTLPWTFGQGTKLEIKRTVAAPSVFIFPPSDEQLKSGTASVVCLLNNFYPREAKVQWKVDNALQSGNSQESVTEQDSKDSTYSLSSTLTLSKADYEKHKVYACEVTHQGLSSPVTKSFNRGEC

Experiments:
pDC = pDC activation by anti-BDCA2:CpG conjugates in human PBMCs; assay type: cell-based
Procedure: PBMCs were immediately plated onto a 96-well format (500K/well) in Complete RPMI (RPMI+10% FBS). Five-fold serial dilutions were added to the cells from 100 nM to 6.4 pM of antibody and conjugated antibody and 1 uM to 64 pM of CpG polynucleotides at 37° C. under 5% CO2 for 48 to 96 hours. Cells were pelleted by centrifugation for five minutes at 400×g and stained at 4° C. in Fixable Viability Dye eFluor 780 (Thermo Fisher Scientific) diluted 1:4000 in PBS. Cells were centrifuged and stained at 4° C. in FACS buffer for 30 minutes containing FcR Blocking Reagent (Miltenyi Biotec), anti-CD19, anti-CD20, anti-CD40, anti-HLADR and anti-CD80 for B cell assays and anti-CD14, anti-CD3, anti-CD19, anti-CD14, anti-CD123, antiCD11 c and anti-CD86 for pDC assays. Cells were centrifuged and washed twice in FACS buffer and fixed in 0.5% paraformaldehyde. COUNTBRIGHT™ Absolute Counting Beads (Thermo Fisher Scientific) were added to each well to count the number of cells. Cells were analyzed on ATTUNE™ NxT Flow Cytometer (Thermo Fisher Scientific), with subsequent data analysis by Flowjo 10.7 (Treestar). Dead cells were excluded by gating on the eFluor 780-negative population. Lineage specific cells were first excluded (CD19, CD3, CD14) prior to gating CD123^+CD11c^− cells to identify pDC and gating CD19^+, CD20^+ or CD19^+CD20^+ cells to identify B cells. […]

TLR9 = experiment: Activation of TLR9 positive and TLR9 negative immune cells in human PBMCs (Example 22); assay type: cell-based
Procedure: For biological evaluation of CpG-oligonucleotides and antibody-CpG oligonucleotide conjugates, Trima residuals were received from Vitalant and diluted 1:2 with Phosphate Buffered Saline (PBS, Gibco). Diluted blood was split into two tubes and underplayed with 15 mL FICOLL® PAQUE medium (GE Healthcare). Tubes were centrifuged for 30 minutes at 400×g. PBMCs were collected from the interface, resuspended and washed in FACS buffer (PBS with 0.5% Bovine Serum Albumin (Gibco)). After one wash, PBMCs were resuspended in Complete RPMI (RPMI+10% FBS). PBMCs were immediately plated onto a 96-well format (500K/well) in Complete RPMI. Five-fold serial dilutions were added to the cells from 1 uM to 64 pM of CpG polynucleotides or 100 nM to 6.4 pM conjugated antibody at 37° C. under 5% CO2 for 18 hours. […] Cells were analyzed on ATTUNE™ NxT Flow Cytometer (Thermo Fisher Scientific), with subsequent data analysis by FLOWJO™ 10.7 (Treestar). […] B cells were identified as CD19+CD20+ cells, T cells as CD3+CD56−, DC as CD11chiHLADR+, and monocytes as CD14+ and level of activation marker was assessed by median fluorescent intensity. • TNT138a=anti-CD22 antibody having RH2 VH domain and RL1 N92S VL domain (SEQ ID Nos:65 and 87, respectively) conjugated to compound 7.7b (7-7) CpG (SEQ ID NO:35)

CD22 = CD22 (Homo sapiens, UniProt P20273); assay type: binding; design: human CD22 (d1 to d7 domain according to NP_001762.2)

| Molecule | IFNα expression (pDC) | activation of TLR9 negative immune cells (CD69 in T cells) (TLR9) | ka (CD22) | kd (CD22) |
| --- | --- | --- | --- | --- |
| B1 | induced IFNα expression |  |  |  |
| B2 |  | did not activate TLR9 negative immune cells |  |  |
| B3 |  |  | 81700 M⁻¹ s⁻¹ | 3.14e-05 s⁻¹ |
| B4 |  |  | 201000 M⁻¹ s⁻¹ | 6.59e-05 s⁻¹ |
| B5 |  |  | 114000 M⁻¹ s⁻¹ | 0.0021 s⁻¹ |
